# According to article PMC12655037, “Mitochondrial-Targeted Triphenylphosphonium-Conjugated Ionophores with Enhanced Cytotoxicity in Cancer Cells” (Molecules, 2025):
# What was measured:
# [1] = test system: SW480 human primary colon cancer cells; test: MTT assay, SW480 cells; type: cell-based
# [2] = test system: SW620 human metastatic colon cancer cells; test: MTT assay, SW620 cells; type: cell-based
# [3] = test system: PC3 human metastatic prostate cancer cells; test: MTT assay, PC3 cells; type: cell-based
# [4] = test system: MDA-MB-231 human breast cancer cells; test: MTT assay, MDA-MB-231 cells; type: cell-based; conditions: for IC50: Homo sapiens, MDA-MB-231, 72 h, read-out: IC50 MDA-MB-231
# [5] = test system: A549 human lung cancer cells; test: MTT assay, A549 cells; type: cell-based
# [6] = test system: MiaPaCa human pancreas cancer cells; test: MTT assay, MiaPaCa cells; type: cell-based; conditions: for IC50: Homo sapiens, MIA PaCa-2, 72 h, read-out: IC50 MiaPaCa
# [7] = test system: A549 cells
# [8] = test system: MDA-MB-231 cells
# [9] = test system: HaCaT human immortal keratinocytes; test: cells; type: cell-based; conditions: 72 h, read-out: IC50 HaCaT (normal cells)
# [10] = test system: V79 Chinese hamster lung fibroblasts; test: MTT assay, V79 cells; type: cell-based; conditions: Cricetulus griseus, Fibroblast, 72 h, read-out: IC50 V79 (normal cells)
# [11] = test system: whole non-permeabilized A549 cells
# [12] = test system: SW480, SW620, PC3, MDA-MB-231, A549 and MiaPaCa cancer cell lines; test: cells; type: cell-based; conditions: Homo sapiens, 72 h, read-out: IC50 values, range across tested cancer cell lines
# [13] = test system: MDA-MB-231 cells; test: MitoTracker Green FM flow cytometry (mitochondrial mass), MDA-MB-231
# [14] = test system: MDA-MB-231 cells; test: MitoTracker Red CMXRos flow cytometry (mitochondrial membrane potential), MDA-MB-231
Compound,Selectivity index (SI) HaCaT / SW480 [1],Selectivity index (SI) V79 / SW480 [1],Selectivity index (SI) HaCaT / SW620 [2],Selectivity index (SI) V79 / SW620 [2],Selectivity index (SI) HaCaT / PC3 [3],Selectivity index (SI) V79 / PC3 [3],Selectivity index (SI) HaCaT / MDA-MB-231 [4],Selectivity index (SI) V79 / MDA-MB-231 [4],IC50 [4] [µM],Selectivity index (SI) HaCaT / A549 [5],Selectivity index (SI) V79 / A549 [5],Selectivity index (SI) HaCaT / MiaPaCa [6],Selectivity index (SI) V79 / MiaPaCa [6],IC50 [6] [µM],mitochondrial ROS (mtROS) production [7],mitochondrial ROS (mtROS) production [8],IC50 [9] [µM],IC50 [10] [µM],effect on oxygen flux (cellular respiration rate) [11],further results
CCC1(C2OC(C3OC(O)(COC(=O)CCC(=O)OCCC[P+](c4ccccc4)(c4ccccc4)c4ccccc4)C(C)CC3C)CC2C)CCC(C2(C)CCC3(CC(O)C(C)C(C(C)C(OC)C(C)C(=O)OCCC[P+](c4ccccc4)(c4ccccc4)c4ccccc4)O3)O2)O1 (centres unmarked) [2f],0.2,1.9,0.1,1.4,0.2,2.3,0.2,2.3,1.4 ± 0.2,0.2,2.5,0.5,5.3,0.6 ± 0.2,lack of electron transport chain ROS generation,lack of electron transport chain ROS generation,–,–,–,–
CC[C@@H](C(=O)[C@@H](C)[C@@H](O)[C@H](C)[C@@H]1O[C@@H]([C@@H](CC)C(=O)O)CC[C@@H]1C)[C@H]1O[C@]2(C=C[C@H](n3cc(C[P+](c4ccccc4)(c4ccccc4)c4ccccc4)nn3)[C@]3(CC[C@@](C)([C@H]4CC[C@](O)(CC)[C@H](C)O4)O3)O2)[C@H](C)C[C@@H]1C [1a],0.4,0.5,0.2,0.3,3.2,4,1.1,1.4,3.4 ± 0.5,1.3,1.7,0.5,0.6,7.6 ± 1.3,induced mtROS production,induced mtROS production,–,–,–,–
CCC1(C2OC(C3OC(O)(CNC(=O)CCC[P+](c4ccccc4)(c4ccccc4)c4ccccc4)C(C)CC3C)CC2C)CCC(C2(C)CCC3(CC(O)C(C)C(C(C)C(OC)C(C)C(=O)O)O3)O2)O1 (centres unmarked) [2e],0.8,–,1.4,–,–,–,–,–,> 100,–,–,–,–,> 100,–,–,39.2 ± 5.6,> 100,no observable impact on oxygen consumption,–
"CC[C@@]1([C@@H]2O[C@@H]([C@H]3O[C@@](O)(CO)[C@H](C)C[C@@H]3C)C[C@@H]2C)CC[C@H]([C@]2(C)CC[C@]3(C[C@H](O)[C@@H](C)[C@@H]([C@@H](C)[C@@H](OC)[C@H](C)C(=O)O)O3)O2)O1 [MON, Monensin A, reference compound]",1.4,1.4,1.3,1.3,1.0,1.1,0.7,0.7,–,1.3,1.4,3.2,3.3,–,no ROS generation,no ROS generation,3.5 ± 1.4,–,–,–
CCC1(C2OC(C3OC(O)(Cn4cc(C[P+](c5ccccc5)(c5ccccc5)c5ccccc5)nn4)C(C)CC3C)CC2C)CCC(C2(C)CCC3(CC(O)C(C)C(C(C)C(OC)C(C)C(=O)O)O3)O2)O1 (centres unmarked) [2a],–,–,–,–,–,–,–,–,0.7 ± 0.2,–,–,–,–,0.3 ± 0.1,–,–,0.6 ± 0.2,5 ± 0.04,only reduced baseline respiration at the highest tested concentration,IC50 [12]: 0.3 to 0.7 µM; cells positive for MTGreen fluorescence [13]: 67.4%; MTRed CMXRos positive stained cells [14]: 13.4%
